The values that follow come from PubChem BioAssay AID602449 (Sanford-Burnham Center for Chemical Genomics, 2012).

This is a selection; strong and weak results do not stand in their true shares. The source made the active and inactive calls.

By inhibition is commonly meant the change of the read-out against control, counted positive when it falls.

This assay in a line: blockers of Ca2+-induced mitochondrial swelling – biochemical, isolated mouse mitochondria, absorbance, primary screen (AID 602449).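 Note: 0% = DMSO wells given calcium and 100% = 1 mM EGTA wells.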 Particulars: 30 min, at 10 µM, active compounds read high.
For `CCC(=O)N(c1ccccc1)C1(COC)CCN(CCn2nnn(CC)c2=O)CC1`, the inhibition is inactive: -0.9%. The value for `CCC(=O)N(c1ccccc1)C1(COC)CCN(CCc2cccs2)CC1` was inactive: -0.6%.
